## Apparent affinities of Ab-95 variants for a coronavirus HR2 peptide

The measurements come from Engelhart et al. 2022 (doi:10.1038/s41597-022-01779-4) through the FLAb antibody collection.

All variants were tested on one target, the spike HR2 peptide PDVDLGDISGINAS (SARS-CoV-2).

Ab-95 is the parent antibody, in scFv form: VH, then the linker GGGGSGGGGSGGGGS, then VL. The heavy chain is unchanged in all variants.
VH: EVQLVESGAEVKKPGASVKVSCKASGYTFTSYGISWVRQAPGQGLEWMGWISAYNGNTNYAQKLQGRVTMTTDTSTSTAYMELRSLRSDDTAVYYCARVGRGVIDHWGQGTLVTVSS
VL: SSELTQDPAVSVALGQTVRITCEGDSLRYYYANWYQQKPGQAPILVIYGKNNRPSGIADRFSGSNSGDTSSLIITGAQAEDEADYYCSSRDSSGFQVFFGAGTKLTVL

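The starting antibody came from a phage panning campaign against this peptide. In library AAYL52, one, two or three CDR residues were substituted; doubles and triples were drawn at random. The assay is AlphaSeq: two haploid yeast populations carry antibody and antigen on their surface. Mating (16 h, 30 °C) was followed by selection of diploids and sequencing of their barcodes. Read counts were normalised to the haploid input and turned into Kd by a linear fit to BCL2-family pairs of known affinity, for each replicate. Each pool was mated in three replicate cultures.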

Changes read parent residue, position, new residue, counted from the first residue of the VL shown.
The read-out is the apparent dissociation constant on a log10 scale (nM): the lower, the stronger.
A mean of the replicates is given; it leaves out those without a signal.
A pair that was not seen in that replicate is written "n.d."; this usually means weak binding, but a binder can also be missed.
Three control strains display no target. For library AAYL52, 28% of the pairings with them gave a signal, with a median of 3.91 and one signal in twenty below 2.90, so weak values seen in few replicates may be background. The control count says in how many pairings with the empty strains this scFv gave a signal, with their mean in brackets.
For reference, the parent read 2.31 as the reference entry and 2.25 as a member of this library.

changes | log10 Kd (nM) by replicate | log10 Kd (nM), mean | control signals
D25E/S88R | 2.68 4.21 2.37 | 3.08 | 3 of 9 (2.69)
K50D/G94K/F95L | 1.88 2.09 0.99 | 1.65 | 4 of 9 (4.19)
S26C/A32N/S89R | n.d. n.d. n.d. | n.d. | 1 of 9 (3.50)
E23L/F98P | 2.68 2.37 2.32 | 2.46 | 1 of 9 (3.25)
A32R/K50C/R53Q | 2.81 4.64 3.54 | 3.66 | 4 of 9 (4.31)
E23T/A32L/G49I | 4.93 n.d. n.d. | 4.93 | 0 of 9
N51Q | 2.89 2.83 2.46 | 2.73 | 2 of 9 (3.45)
R28D/N33T/G49I | n.d. 4.83 n.d. | 4.83 | 3 of 9 (2.71)
D25Y/Y29L/S55F | 6.00 5.07 3.21 | 4.76 | 5 of 9 (4.69)
S26R/R28F/S89D | 3.97 n.d. n.d. | 3.97 | 2 of 9 (3.82)
E23V/P54M/F98N | 2.79 2.57 n.d. | 2.68 | 1 of 9 (5.29)
Y31V/N51S/S88L | 3.97 n.d. n.d. | 3.97 | 4 of 9 (4.48)
A32Q/R90D/S92Q | n.d. n.d. n.d. | n.d. | 1 of 9 (4.33)
G24T/L27Y/R53G | n.d. n.d. n.d. | n.d. | 2 of 9 (2.98)
G24Y/S88E/D91V | 4.40 n.d. 4.54 | 4.47 | 1 of 9 (2.72)
P54K/S55C | 2.95 3.82 3.18 | 3.32 | 3 of 9 (4.30)
D25Y/Y29H/S88F | 3.64 4.64 n.d. | 4.14 | 3 of 9 (3.73)
Y31I/S92D/V97E | 3.60 4.00 n.d. | 3.80 | 1 of 9 (4.07)
G24M/G49E/S92V | n.d. n.d. 4.61 | 4.61 | 2 of 9 (4.21)
Y29F/S88W/S93P | 4.83 3.69 3.84 | 4.12 | 3 of 9 (3.88)
D25Q/S89I | 3.92 3.35 n.d. | 3.63 | 2 of 9 (4.24)
G24N/S89E/G94A | 3.91 n.d. 4.48 | 4.19 | 2 of 9 (4.19)
G24W/S88L/S89I | 4.13 n.d. n.d. | 4.13 | 4 of 9 (3.94)
N51H/S88E/V97G | n.d. n.d. n.d. | n.d. | 0 of 9
E23N/N33F/S55C | 4.55 n.d. n.d. | 4.55 | 4 of 9 (3.57)
G24I/S88T/G94N | 3.62 5.60 n.d. | 4.61 | 3 of 9 (3.84)
R28N/P54Q/S55H | 3.00 3.95 3.62 | 3.52 | 1 of 9 (5.19)
Y29P/S93A | 3.35 4.86 3.13 | 3.78 | 4 of 9 (4.00)
N33A/N52Q/S93A | 4.70 5.35 4.21 | 4.75 | 5 of 9 (4.16)
L27C/R28V/S89Y | 3.02 n.d. n.d. | 3.02 | 3 of 9 (4.03)
L27P/D91M/F95I | n.d. n.d. n.d. | n.d. | 2 of 9 (3.94)
E23K/Y31M | 1.32 1.37 0.92 | 1.21 | 2 of 9 (3.99)
S26M/V97F | n.d. 3.34 2.97 | 3.16 | 3 of 9 (3.98)
G24L/A32G/R53S | 3.92 n.d. 4.48 | 4.20 | 3 of 9 (3.97)
S26D/S88D/S92T | 1.83 1.67 1.55 | 1.69 | 0 of 9
S55R/S93D/F98D | 2.66 3.91 n.d. | 3.28 | 1 of 9 (4.59)
Y30E/S55D/S89D | 1.54 1.36 0.67 | 1.19 | 1 of 9 (4.84)
D25G/G49F/Q96P | 4.31 n.d. n.d. | 4.31 | 2 of 9 (3.65)
P54R/R90K/S92T | 5.57 n.d. n.d. | 5.57 | 2 of 9 (3.35)
G24S/Y31M/S93E | n.d. n.d. 3.58 | 3.58 | 1 of 9 (3.52)
G24R/R28I | 3.04 3.74 2.28 | 3.02 | 3 of 9 (4.20)
R53D/P54D/D91H | 4.22 4.58 n.d. | 4.40 | 3 of 9 (3.81)
N33R/S89I/S92M | 4.00 n.d. n.d. | 4.00 | 0 of 9
D25C/A32F/P54L | n.d. 3.83 3.91 | 3.87 | 1 of 9 (4.57)

The last 5 entries again:

changes | log10 Kd (nM) by replicate | log10 Kd (nM), mean | control signals
G24S/Y31M/S93E | n.d. n.d. 3.58 | 3.58 | 1 of 9 (3.52)
G24R/R28I | 3.04 3.74 2.28 | 3.02 | 3 of 9 (4.20)
R53D/P54D/D91H | 4.22 4.58 n.d. | 4.40 | 3 of 9 (3.81)
N33R/S89I/S92M | 4.00 n.d. n.d. | 4.00 | 0 of 9
D25C/A32F/P54L | n.d. 3.83 3.91 | 3.87 | 1 of 9 (4.57)